Laboratory results reported in ChEMBL document CHEMBL3885861, “Open TG-GATES”.

Key:
Rattus norvegicus [1] = organism: Rattus norvegicus; assay: Open TG-GATES - Regimen: Single; assay type: toxicity, organism-based, Sprague-Dawley; design: regimen Single, gender Male, age 6 weeks; conditions: in vivo, po, tissue Plasma, route gavage
Rattus norvegicus [2] = organism: Rattus norvegicus; assay: Open TG-GATES - Regimen: Daily Repeat; assay type: toxicity, organism-based, Sprague-Dawley; design: regimen Daily Repeat, gender Male, age 6 weeks; conditions: in vivo, po, tissue Plasma, route gavage
[3] = 0 mg/kg, 3 h, dose level Control
[4] = 0 mg/kg, 6 h, dose level Control
[5] = 0 mg/kg, 9 h, dose level Control
[6] = 0 mg/kg, 24 h, dose level Control
[7] = 75 mg/kg, 3 h, dose level Middle
[8] = 75 mg/kg, 6 h, dose level Middle
[9] = 75 mg/kg, 9 h, dose level Middle
[10] = 75 mg/kg, 24 h, dose level Middle
[11] = 250 mg/kg, 3 h, dose level High
[12] = 250 mg/kg, 6 h, dose level High
[13] = 250 mg/kg, 9 h, dose level High
[14] = 250 mg/kg, 24 h, dose level High
[15] = 0 mg/kg, 72 h, dose level Control, time 3 day
[16] = 0 mg/kg, […], dose level Control, time 7 day
[17] = 0 mg/kg, […], dose level Control, time 14 day
[18] = 0 mg/kg, […], dose level Control, time 28 day
[19] = 25 mg/kg, 72 h, dose level Low, time 3 day
[20] = 25 mg/kg, […], dose level Low, time 7 day
[21] = 25 mg/kg, […], dose level Low, time 14 day
[22] = 25 mg/kg, […], dose level Low, time 28 day
[23] = 75 mg/kg, 72 h, dose level Middle, time 3 day
[24] = 75 mg/kg, […], dose level Middle, time 7 day
[25] = 75 mg/kg, […], dose level Middle, time 14 day
[26] = 75 mg/kg, […], dose level Middle, time 28 day
[27] = 250 mg/kg, 72 h, dose level High, time 3 day
[28] = 250 mg/kg, […], dose level High, time 7 day
[29] = 250 mg/kg, […], dose level High, time 14 day
[30] = 250 mg/kg, […], dose level High, time 28 day

`CN1C(=O)CN=C(c2ccccc2)c2cc(Cl)ccc21` [DIAZEPAM] was tested, and the A/G (Rattus norvegicus [1]; [3]) was 2, the IP (Rattus norvegicus [1]; [3]) was 9.3 mg/dL and the A/G (Rattus norvegicus [1]; [4]) was 2. For the same compound, the Ca (Rattus norvegicus [1]; [4]) was 10.1 mg/dL, the IP (Rattus norvegicus [1]; [4]) was 10.2 mg/dL and the LDH (Rattus norvegicus [1]; [4]) was 82.6 IU/L. For the same compound, the A/G (Rattus norvegicus [1]; [5]) was 2.1, the IP (Rattus norvegicus [1]; [5]) was 10.1 mg/dL and the LDH (Rattus norvegicus [1]; [5]) was 79.2 IU/L. The A/G (Rattus norvegicus [1]; [6]) was 2, the Ca (Rattus norvegicus [1]; [6]) was 9.9 mg/dL and the IP (Rattus norvegicus [1]; [6]) was 8.2 mg/dL. For the same compound, the LDH (Rattus norvegicus [1]; [6]) was 93.8 IU/L, the A/G (Rattus norvegicus [1]; 25 mg/kg, 3 h, dose level Low) was 2 and the Ca (Rattus norvegicus [1]; 25 mg/kg, 3 h, dose level Low) was 10.8 mg/dL. The IP (Rattus norvegicus [1]; 25 mg/kg, 3 h, dose level Low) was 11 mg/dL, the LDH (Rattus norvegicus [1]; 25 mg/kg, 3 h, dose level Low) was 76.4 IU/L and the A/G (Rattus norvegicus [1]; 25 mg/kg, 6 h, dose level Low) was 2. For the same compound, the IP (Rattus norvegicus [1]; 25 mg/kg, 6 h, dose level Low) was 10.3 mg/dL, the LDH (Rattus norvegicus [1]; 25 mg/kg, 6 h, dose level Low) was 94.6 IU/L and the A/G (Rattus norvegicus [1]; 25 mg/kg, 9 h, dose level Low) was 2.2. It also gave a Ca (Rattus norvegicus [1]; 25 mg/kg, 9 h, dose level Low) of 10.8 mg/dL, an IP (Rattus norvegicus [1]; 25 mg/kg, 9 h, dose level Low) of 11.1 mg/dL and an LDH (Rattus norvegicus [1]; 25 mg/kg, 9 h, dose level Low) of 79.2 IU/L. It also gave an A/G (Rattus norvegicus [1]; 25 mg/kg, 24 h, dose level Low) of 1.9, a Ca (Rattus norvegicus [1]; 25 mg/kg, 24 h, dose level Low) of 10.2 mg/dL and an IP (Rattus norvegicus [1]; 25 mg/kg, 24 h, dose level Low) of 7.4 mg/dL. It also gave an LDH (Rattus norvegicus [1]; 25 mg/kg, 24 h, dose level Low) of 97 IU/L, an A/G (Rattus norvegicus [1]; [7]) of 2.5 and a Ca (Rattus norvegicus [1]; [7]) of 10.6 mg/dL. For the same compound, the IP (Rattus norvegicus [1]; [7]) was 10.9 mg/dL, the LDH (Rattus norvegicus [1]; [7]) was 76.6 IU/L and the A/G (Rattus norvegicus [1]; [8]) was 1.9. It also gave a Ca (Rattus norvegicus [1]; [8]) of 10.6 mg/dL, an IP (Rattus norvegicus [1]; [8]) of 10.6 mg/dL and an LDH (Rattus norvegicus [1]; [8]) of 83.8 IU/L. For the same compound, the A/G (Rattus norvegicus [1]; [9]) was 2.1, the Ca (Rattus norvegicus [1]; [9]) was 11 mg/dL and the IP (Rattus norvegicus [1]; [9]) was 11.2 mg/dL. For the same compound, the LDH (Rattus norvegicus [1]; [9]) was 84.4 IU/L, the A/G (Rattus norvegicus [1]; [10]) was 2.4 and the Ca (Rattus norvegicus [1]; [10]) was 10.1 mg/dL. The IP (Rattus norvegicus [1]; [10]) was 7.9 mg/dL, the LDH (Rattus norvegicus [1]; [10]) was 93.6 IU/L and the A/G (Rattus norvegicus [1]; [11]) was 1.9. The Ca (Rattus norvegicus [1]; [11]) was 10.2 mg/dL, the LDH (Rattus norvegicus [1]; [11]) was 134.2 IU/L and the A/G (Rattus norvegicus [1]; [12]) was 2. The Ca (Rattus norvegicus [1]; [12]) was 10.6 mg/dL, the IP (Rattus norvegicus [1]; [12]) was 9.9 mg/dL and the LDH (Rattus norvegicus [1]; [12]) was 183.8 IU/L. For the same compound, the A/G (Rattus norvegicus [1]; [13]) was 2, the Ca (Rattus norvegicus [1]; [13]) was 11.1 mg/dL and the IP (Rattus norvegicus [1]; [13]) was 10.3 mg/dL. The LDH (Rattus norvegicus [1]; [13]) was 222.2 IU/L, the A/G (Rattus norvegicus [1]; [14]) was 2.2 and the IP (Rattus norvegicus [1]; [14]) was 8.6 mg/dL. It also gave an LDH (Rattus norvegicus [1]; [14]) of 167 IU/L, an A/G (Rattus norvegicus [2]; [15]) of 1.9 and a Ca (Rattus norvegicus [2]; [15]) of 10.3 mg/dL. For the same compound, the IP (Rattus norvegicus [2]; [15]) was 7.7 mg/dL, the LDH (Rattus norvegicus [2]; [15]) was 81.2 IU/L and the A/G (Rattus norvegicus [2]; [16]) was 2. The Ca (Rattus norvegicus [2]; [16]) was 11.4 mg/dL, the IP (Rattus norvegicus [2]; [16]) was 8.4 mg/dL and the LDH (Rattus norvegicus [2]; [16]) was 76.2 IU/L. The A/G (Rattus norvegicus [2]; [17]) was 1.7, the Ca (Rattus norvegicus [2]; [17]) was 11.1 mg/dL and the IP (Rattus norvegicus [2]; [17]) was 7.7 mg/dL. For the same compound, the LDH (Rattus norvegicus [2]; [17]) was 127.8 IU/L, the A/G (Rattus norvegicus [2]; [18]) was 1.7 and the Ca (Rattus norvegicus [2]; [18]) was 10.7 mg/dL. It also gave an IP (Rattus norvegicus [2]; [18]) of 6.3 mg/dL, an LDH (Rattus norvegicus [2]; [18]) of 55.6 IU/L and an A/G (Rattus norvegicus [2]; [19]) of 2.2. It also gave a Ca (Rattus norvegicus [2]; [19]) of 10.3 mg/dL, an IP (Rattus norvegicus [2]; [19]) of 8.4 mg/dL and an LDH (Rattus norvegicus [2]; [19]) of 102.6 IU/L. The A/G (Rattus norvegicus [2]; [20]) was 2.1, the Ca (Rattus norvegicus [2]; [20]) was 11 mg/dL and the IP (Rattus norvegicus [2]; [20]) was 8.1 mg/dL. It also gave an LDH (Rattus norvegicus [2]; [20]) of 80.8 IU/L, an A/G (Rattus norvegicus [2]; [21]) of 1.9 and a Ca (Rattus norvegicus [2]; [21]) of 10.9 mg/dL. For the same compound, the IP (Rattus norvegicus [2]; [21]) was 7.2 mg/dL, the LDH (Rattus norvegicus [2]; [21]) was 93.2 IU/L and the A/G (Rattus norvegicus [2]; [22]) was 1.6. The Ca (Rattus norvegicus [2]; [22]) was 10.6 mg/dL, the IP (Rattus norvegicus [2]; [22]) was 7 mg/dL and the LDH (Rattus norvegicus [2]; [22]) was 71.6 IU/L. The A/G (Rattus norvegicus [2]; [23]) was 2.1, the Ca (Rattus norvegicus [2]; [23]) was 10.6 mg/dL and the IP (Rattus norvegicus [2]; [23]) was 7.9 mg/dL. The LDH (Rattus norvegicus [2]; [23]) was 105.2 IU/L, the A/G (Rattus norvegicus [2]; [24]) was 2.1 and the Ca (Rattus norvegicus [2]; [24]) was 11 mg/dL. It also gave an IP (Rattus norvegicus [2]; [24]) of 7.9 mg/dL, an LDH (Rattus norvegicus [2]; [24]) of 73.2 IU/L and an A/G (Rattus norvegicus [2]; [25]) of 1.8. For the same compound, the Ca (Rattus norvegicus [2]; [25]) was 11 mg/dL, the IP (Rattus norvegicus [2]; [25]) was 7.4 mg/dL and the LDH (Rattus norvegicus [2]; [25]) was 95.2 IU/L. It also gave an A/G (Rattus norvegicus [2]; [26]) of 1.6, a Ca (Rattus norvegicus [2]; [26]) of 10.5 mg/dL and an IP (Rattus norvegicus [2]; [26]) of 6.1 mg/dL. For the same compound, the LDH (Rattus norvegicus [2]; [26]) was 56.8 IU/L, the A/G (Rattus norvegicus [2]; [27]) was 1.8 and the Ca (Rattus norvegicus [2]; [27]) was 10.8 mg/dL. For the same compound, the IP (Rattus norvegicus [2]; [27]) was 7.9 mg/dL, the LDH (Rattus norvegicus [2]; [27]) was 175.6 IU/L and the A/G (Rattus norvegicus [2]; [28]) was 1.8. For the same compound, the Ca (Rattus norvegicus [2]; [28]) was 10.9 mg/dL, the IP (Rattus norvegicus [2]; [28]) was 7.6 mg/dL and the LDH (Rattus norvegicus [2]; [28]) was 192 IU/L. It also gave an A/G (Rattus norvegicus [2]; [29]) of 1.8, a Ca (Rattus norvegicus [2]; [29]) of 11.4 mg/dL and an IP (Rattus norvegicus [2]; [29]) of 7.8 mg/dL. For the same compound, the LDH (Rattus norvegicus [2]; [29]) was 169.6 IU/L, the A/G (Rattus norvegicus [2]; [30]) was 1.7 and the Ca (Rattus norvegicus [2]; [30]) was 10.7 mg/dL. For the same compound, the IP (Rattus norvegicus [2]; [30]) was 7.3 mg/dL and the LDH (Rattus norvegicus [2]; [30]) was 97 IU/L.
